The values below come from ChEMBL document CHEMBL5214950 (Bioorg Med Chem Lett, 2022).

Amino acid sequences for entries named in this document (tags omitted).
UniProt P23975, whole entry: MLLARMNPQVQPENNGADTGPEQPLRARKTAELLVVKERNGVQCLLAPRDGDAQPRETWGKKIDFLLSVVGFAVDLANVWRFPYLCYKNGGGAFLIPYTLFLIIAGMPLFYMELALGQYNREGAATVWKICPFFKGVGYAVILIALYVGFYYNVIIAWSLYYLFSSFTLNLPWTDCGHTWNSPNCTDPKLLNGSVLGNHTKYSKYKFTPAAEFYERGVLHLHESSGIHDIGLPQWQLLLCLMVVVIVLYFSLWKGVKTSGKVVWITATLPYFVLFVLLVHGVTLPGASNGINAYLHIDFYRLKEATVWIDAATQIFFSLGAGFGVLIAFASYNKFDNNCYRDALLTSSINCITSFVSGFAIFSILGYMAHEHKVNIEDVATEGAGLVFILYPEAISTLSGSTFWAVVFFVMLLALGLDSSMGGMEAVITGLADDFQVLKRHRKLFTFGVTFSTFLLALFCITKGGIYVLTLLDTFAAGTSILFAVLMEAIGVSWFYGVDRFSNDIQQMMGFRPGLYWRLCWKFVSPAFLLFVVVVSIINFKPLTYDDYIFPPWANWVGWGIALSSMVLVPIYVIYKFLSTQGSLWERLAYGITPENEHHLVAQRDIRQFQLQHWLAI

pIC50: −log10 of the molar value.

For this assay, the target named is Sodium-dependent noradrenaline transporter (Homo sapiens, UniProt P23975). Kind of assay: Inhibition of norepinephrine transporter (unknown origin) assessed as inhibition of norepinephrine reuptake.

With `[2H]C([2H])([2H])C(N[C@@]([2H])(C)C(=O)c1cccc(Cl)c1)(C([2H])([2H])[2H])C([2H])([2H])[2H]`, the negative-log IC50 (pIC50) is 6.00. The result for `CC(NC(C)(C)C)C(=O)c1cccc(Cl)c1` (racemic) [BUPROPION] reads 5.80; that for `[2H]C([2H])([2H])C(N[C@]([2H])(C)C(=O)c1cccc(Cl)c1)(C([2H])([2H])[2H])C([2H])([2H])[2H]`, 5.17; that for `[2H]C([2H])([2H])[C@]([2H])(NC(C)(C)C)C(=O)c1cccc(Cl)c1`, 5.66.

In the case of `[2H]C([2H])([2H])[C@@]([2H])(NC(C)(C)C)C(=O)c1cccc(Cl)c1`, the pIC50 is 5.51.
